From paper PMC7053292 (Research in Pharmaceutical Sciences, 2020)

Amino acid sequences for entries named in this document (tags omitted). A change or cut given only in a name is not applied to a line headed by its entry.
UniProt P53341: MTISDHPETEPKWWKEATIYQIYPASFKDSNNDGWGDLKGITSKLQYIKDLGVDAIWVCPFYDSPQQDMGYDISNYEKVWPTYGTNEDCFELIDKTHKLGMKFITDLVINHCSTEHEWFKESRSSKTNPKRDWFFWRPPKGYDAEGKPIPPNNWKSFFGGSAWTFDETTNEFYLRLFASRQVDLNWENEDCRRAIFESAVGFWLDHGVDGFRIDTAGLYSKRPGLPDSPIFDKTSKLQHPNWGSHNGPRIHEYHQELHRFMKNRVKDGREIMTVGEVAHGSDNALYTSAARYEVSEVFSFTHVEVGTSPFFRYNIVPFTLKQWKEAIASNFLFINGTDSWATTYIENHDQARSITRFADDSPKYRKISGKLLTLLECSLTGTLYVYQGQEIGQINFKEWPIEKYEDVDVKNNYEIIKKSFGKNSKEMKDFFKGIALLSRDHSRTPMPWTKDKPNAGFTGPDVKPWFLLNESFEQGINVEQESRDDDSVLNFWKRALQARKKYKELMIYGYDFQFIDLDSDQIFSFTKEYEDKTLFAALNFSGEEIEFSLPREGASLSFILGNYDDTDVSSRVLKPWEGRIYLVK

Target: α-glucosidase from Saccharomyces cerevisiae (Saccharomyces cerevisiae, UniProt P53341)
Experiment: α-Glucosidase assay
Type: biochemical
Conditions: read-out: Inhibition at 0.02 mM (%) α-Glucosidase

Work on `C[C@H]1O[C@H](O[C@H]2[C@H](O)[C@@H](O)[C@@H](O[C@H]3[C@H](O)[C@@H](O)C(O)O[C@@H]3CO)O[C@@H]2CO)[C@H](O)[C@@H](O)[C@@H]1N[C@H]1C=C(CO)[C@@H](O)[C@H](O)[C@H]1O` (stereo partly shown) [Acarbose, acarbose, reference compound] yielded an inhibition at 20 µM of 71.3 ± 1.1%.
